Earlier results on 1 substance are cited in patent US8946148B2, “Modified insulin polypeptides and their uses” (Ambrx, Inc., priority 2007, dated 2015).

The conditions of the data set: pH range from 4.2 and 6.6.

For insulin, the solubility entry is given as “clear reduction”.
